Data set [1] concerns CHO/CYP1B1 cells. The data set is described as follows: Cytotoxicity in CHO/CYP1B1 cells (MTS assay). The conditions noted are these: 72 h exposure; for IC50 ratio 72 h (CHO / CHO/CYP1B1): IC50 in normal CHO divided by IC50 in CYP1B1 transfected CHO.
Data set [2] concerns CHO/CYP1A1 cells. The data set is described as follows: Cytotoxicity in CHO/CYP1A1 cells (MTS assay). The conditions noted are these: 72 h exposure; for IC50 ratio 72 h (CHO / CHO/CYP1A1): IC50 in normal CHO divided by IC50 in CYP1A1 transfected CHO.
Data set [3] has as its system CHO cells. The data set is described as follows: Cytotoxicity in wild-type CHO cells (MTS assay). The note with it: read-out: Cytotoxicity (IC50) CHO 72 h; 72 h exposure.

We go through two compounds from patent US20120302748A1, “TREATMENT OR PROPHYLAXIS OF PROLIFERATIVE CONDITIONS” (THE UNIVERSITY COURT OF THE UNIVERSITY OF DUNDEE, priority 2009, published 2012).

Turning to `O=P(O)(NCCCl)NCCCl` [Cl-IPM, N,N-bis(2-chloro-ethyl)phosphoramide, reference compound], the “IC50 ratio 72 h (CHO / CHO/CYP1B1)” value in data set [1] is recorded as less than 1. Besides, the “IC50 ratio 72 h (CHO / CHO/CYP1A1)” value in data set [2] was 1.2.
For N,N-bis(2-bromo-ethyl)phosphoramide, the “IC50 ratio 72 h (CHO / CHO/CYP1B1)” value in data set [1] worked out at 1.25. Further, the results for the IC50 in data set [1] (read-out: Cytotoxicity (IC50) CHO/CYP1B1 72 h), in data set [2] (read-out: Cytotoxicity (IC50) CHO/CYP1A1 72 h) and in data set [3] were 4 nM, 5 nM and 5 nM, respectively. In addition, the “IC50 ratio 72 h (CHO / CHO/CYP1A1)” value in data set [2] is recorded as 1.
